Measurements: publication PMC10862543, “Naphthalene Diimide–Tetraazacycloalkane Conjugates Are G-Quadruplex-Based HIV-1 Inhibitors with a Dual Mode of Action” (ACS Infectious Diseases, 2024)

Key:
HIV-1 X4 strain (NL4-3) = conditions: for fold less potent than the NDI-MOCs: HIV-1 X4 strain; for SI (CC50/IC50 ratio): X4 strain
HIV-1 R5 strain (BaL) = experiment: microbe, parasite or virus in culture; assay type: cell-based; conditions: evaluation 48 hpi
Description: Untreated cells were treated with the same solvent.

Compound: CN(C)CCCNc1cc2c3c(c(NCCCCCC(=O)OCC4CNCCCNCCNCCN4)cc4c3c1C(=O)N(CCCN(C)C)C4=O)C(=O)N(CCCN(C)C)C2=O (stereo not drawn) [compound 5]
- fold less potent than the NDI-MOCs (HIV-1 X4 strain (NL4-3); 24 h incubation assay): about 12 times
- fold less potent than the NDI-MOCs (HIV-1 X4 strain (NL4-3); 48 h incubation assay): ~5 times
- SI (CC50/IC50 ratio) (HIV-1 X4 strain (NL4-3); administration 0 hpi, evaluation 24 hpi): >1.41
- SI (CC50/IC50 ratio) (HIV-1 X4 strain (NL4-3); administration 0 hpi, evaluation 48 hpi): >13.44
- SI (CC50/IC50 ratio) (HIV-1 X4 strain (NL4-3); administration 2 hpi, evaluation 24 hpi): >2.07
- SI (CC50/IC50 ratio) (HIV-1 X4 strain (NL4-3); administration 2 hpi, evaluation 48 hpi): >13.71
- IC50 (HIV-1 R5 strain (BaL); Human immunodeficiency virus 1, BAL, TZM-bl, administration 0 hpi, MOI 0.3): 15.1 ± 1.21 µM
- SI (CC50/IC50 ratio) (HIV-1 R5 strain (BaL); administration 0 hpi): >1.65
- SI (CC50/IC50 ratio) (HIV-1 R5 strain (BaL); administration 2 hpi): >1.51

Like-named read-outs stand apart in the source and are kept apart here.
